Assay results from article PMC11986510, “Duplexed CeTEAM drug biosensors reveal determinants of PARP inhibitor selectivity in cells” (The Journal of Biological Chemistry, 2025).

Chains of the proteins cited; added tags and fusions are not shown. Residues count along the entry.
UniProt Q9UGN5, 1-570 isoform 2 L269A: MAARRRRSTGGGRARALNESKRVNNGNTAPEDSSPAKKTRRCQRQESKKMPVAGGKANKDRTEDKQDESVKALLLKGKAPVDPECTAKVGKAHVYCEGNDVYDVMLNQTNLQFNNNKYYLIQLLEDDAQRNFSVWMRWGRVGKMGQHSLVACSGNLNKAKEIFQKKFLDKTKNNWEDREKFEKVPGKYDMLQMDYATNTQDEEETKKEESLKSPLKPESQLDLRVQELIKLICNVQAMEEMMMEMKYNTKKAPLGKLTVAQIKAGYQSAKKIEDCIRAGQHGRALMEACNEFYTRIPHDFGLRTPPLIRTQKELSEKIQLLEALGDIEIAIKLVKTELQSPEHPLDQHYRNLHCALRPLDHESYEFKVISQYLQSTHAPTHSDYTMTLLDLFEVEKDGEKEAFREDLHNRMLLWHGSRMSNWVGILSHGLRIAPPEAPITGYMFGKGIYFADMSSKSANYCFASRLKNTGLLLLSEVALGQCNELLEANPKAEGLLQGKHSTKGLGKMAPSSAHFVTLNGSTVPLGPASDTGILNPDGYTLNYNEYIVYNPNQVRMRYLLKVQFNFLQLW

Target: PARP2 L269A-mCherry (Homo sapiens, UniProt Q9UGN5, L282A)
Assay: Rescreen of PARP1 L713F stabilizers, PARP2 L269A-mCherry intensity
Type: cell-based
Conditions: 10 μM, 16 h; hit = statistically significant (p < 0.05)

With `O=c1[nH]c(SCCN2CCN(c3ccccn3)CC2)nc2ccccc12` [MC2050] the “PARP2 L269A-mCherry abundance change versus DMSO control” value was “except for MC2050 and MC3474”.
